Data taken from patent US5980914A, “Clioquinol for the treatment of Parkinson's disease” (priority 1997, dated 1999).
“Also recorded” adds a separate entry of the source.

Test system: vitamin B12 ([^57 Co]-cyanocobalamine) metabolism
Test: Influence of clioquinol on vitamin B12 in vivo: [57Co]-cyanocobalamine radioactivity in dissected tissues
Set-up: species or system mice
Details: versus control
Description: After three days, all of the mice were injected with [^57 Co]-cyanocobalamine. After two days, the animals were sacrificed, and the brain, liver and kidney were dissected and counted in a gamma-counter as thousand cpm/g tissue (wet weight)±SEM. The radioactivities in each of the groups are stated in Table 1 below: […]

With `Oc1c(I)cc(Cl)c2cccnc12` [Clioquinol, 5-chloro-7-iodo-8 hydroxyquinoline] as the molecule, how does the “radioactivity accumulation / vitamin B12 concentration in the brain and the liver, in words” value read?
Its value is “remains at a normal level; also recorded: no significant changes in the amount of radioactivity accumulation in the brain and the liver”.
